Patent US20260224524A1, “A PHARMACEUTICAL COMPOSITION TARGETING MUTANT P53 AND HER2” (DR DOZO LABORATORIES, priority 2023, published 2026)

System: human tumour xenograft MDA-MB-231
Assay: Human tumour xenograft MDA-MB-231 model, tumour volume and relative tumour volume
Assay type: in vivo, mice
Settings: Group B, 2.5 mg/kg i.v. day 1, 5, 9
Procedure: The therapeutic effect of SACC is evaluated against triple-negative breast cancer cell line MDA-MB-231 by analysing tumour volume and relative tumour volume. The study involved the use of six mice. These mice were administrated treatment according to the following Groups: […]

COc1cccc2c1C(=O)c1c(O)c3c(c(O)c1C2=O)C[C@@](O)(C(=O)CO)C[C@@H]3O[C@H]1C[C@H](N)[C@H](O)[C@H](C)O1 [ADR, Adriamycin]
RTV (Relative Tumour Volume) (day 1): 1.00
RTV (Relative Tumour Volume) (day 12): 1.14
